Source: ChEMBL document CHEMBL1136008, “Novel tricyclic poly(ADP-ribose) polymerase-1 inhibitors with potent anticancer chemopotentiating activity: design, synthesis, and X-ray cocrystal structure” (J Med Chem, 2002)

By UniProt entry, the sequences of proteins in these tests, tags left out.
UniProt P09874, whole entry: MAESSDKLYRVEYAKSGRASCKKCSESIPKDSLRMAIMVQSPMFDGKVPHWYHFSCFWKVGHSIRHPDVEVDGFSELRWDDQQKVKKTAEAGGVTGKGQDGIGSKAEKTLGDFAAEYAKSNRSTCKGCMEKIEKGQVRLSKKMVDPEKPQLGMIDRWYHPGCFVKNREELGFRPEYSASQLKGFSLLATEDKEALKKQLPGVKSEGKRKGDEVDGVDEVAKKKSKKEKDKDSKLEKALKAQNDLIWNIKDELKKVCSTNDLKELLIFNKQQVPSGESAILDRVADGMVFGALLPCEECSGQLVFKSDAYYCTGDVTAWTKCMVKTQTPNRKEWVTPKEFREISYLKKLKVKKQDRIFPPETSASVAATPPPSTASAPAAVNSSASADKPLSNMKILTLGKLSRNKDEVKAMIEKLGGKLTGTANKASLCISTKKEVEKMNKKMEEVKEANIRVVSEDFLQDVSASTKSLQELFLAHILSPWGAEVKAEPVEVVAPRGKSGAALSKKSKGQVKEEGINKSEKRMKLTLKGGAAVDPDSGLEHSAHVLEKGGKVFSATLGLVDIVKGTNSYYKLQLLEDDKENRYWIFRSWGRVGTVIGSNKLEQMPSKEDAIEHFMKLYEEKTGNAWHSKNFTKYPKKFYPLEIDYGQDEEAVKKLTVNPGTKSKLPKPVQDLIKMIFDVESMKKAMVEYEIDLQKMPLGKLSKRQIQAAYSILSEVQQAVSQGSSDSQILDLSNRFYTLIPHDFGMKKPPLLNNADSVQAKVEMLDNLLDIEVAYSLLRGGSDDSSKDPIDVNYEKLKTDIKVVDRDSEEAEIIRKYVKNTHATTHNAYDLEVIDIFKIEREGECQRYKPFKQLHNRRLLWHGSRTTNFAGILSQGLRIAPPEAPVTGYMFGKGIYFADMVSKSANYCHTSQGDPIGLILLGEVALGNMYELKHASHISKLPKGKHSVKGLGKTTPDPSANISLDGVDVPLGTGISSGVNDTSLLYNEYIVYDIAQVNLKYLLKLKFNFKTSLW

Molecular target: Poly [ADP-ribose] polymerase 1 (Homo sapiens, UniProt P09874)

Compound	Ki [nM]
Cn1c(-c2ccccc2)c2c3c(cccc31)C(=O)NCC2	7
O=C1NCCc2c(-c3ccccc3Cl)[nH]c3cccc1c23	8
